Assay results: patent US20240408093A1, “HETEROBIFUNCTIONAL COMPOUNDS AND THEIR USE IN TREATING DISEASE” (HALDA THERAPEUTICS OPCO, INC., priority 2022, published 2024)

Sequences of proteins named here, by UniProt entry; tags and fusion partners are left off. A change or cut given only in a name is not applied to a line headed by its entry. Residues count along the entry.
UniProt P00533, 669-1011 limits assumed: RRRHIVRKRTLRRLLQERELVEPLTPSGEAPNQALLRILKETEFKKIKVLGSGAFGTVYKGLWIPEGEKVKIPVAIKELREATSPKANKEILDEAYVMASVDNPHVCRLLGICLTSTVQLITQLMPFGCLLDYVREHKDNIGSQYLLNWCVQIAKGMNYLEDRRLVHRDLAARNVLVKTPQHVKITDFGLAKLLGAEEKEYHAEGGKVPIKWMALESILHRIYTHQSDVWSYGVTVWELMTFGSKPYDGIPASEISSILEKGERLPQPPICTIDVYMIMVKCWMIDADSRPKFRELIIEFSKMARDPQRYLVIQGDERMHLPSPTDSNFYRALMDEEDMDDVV
UniProt P00533, 669-1011 T790M/L858R limits assumed: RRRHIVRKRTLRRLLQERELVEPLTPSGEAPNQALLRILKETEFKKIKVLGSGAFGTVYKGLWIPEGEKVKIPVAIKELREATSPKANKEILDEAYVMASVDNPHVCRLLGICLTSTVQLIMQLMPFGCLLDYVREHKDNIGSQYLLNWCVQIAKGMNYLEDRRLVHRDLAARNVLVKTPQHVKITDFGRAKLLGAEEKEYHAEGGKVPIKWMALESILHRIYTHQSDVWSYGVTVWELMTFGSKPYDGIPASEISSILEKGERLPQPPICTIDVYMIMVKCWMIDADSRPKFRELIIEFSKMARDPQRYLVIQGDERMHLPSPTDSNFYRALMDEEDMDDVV
UniProt P00533, 696-1022 T790M/L858R limits assumed: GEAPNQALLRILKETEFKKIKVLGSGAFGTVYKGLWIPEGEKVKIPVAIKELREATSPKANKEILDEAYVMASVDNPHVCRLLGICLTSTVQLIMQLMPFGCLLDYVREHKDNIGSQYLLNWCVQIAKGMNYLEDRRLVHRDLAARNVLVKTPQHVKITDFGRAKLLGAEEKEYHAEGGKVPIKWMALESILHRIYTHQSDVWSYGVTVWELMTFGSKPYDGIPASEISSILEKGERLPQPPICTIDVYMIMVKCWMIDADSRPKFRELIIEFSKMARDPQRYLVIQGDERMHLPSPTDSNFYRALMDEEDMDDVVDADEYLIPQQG

Columns and labels:
[1] = test system: HEK293 cells (ATCC CRL-1573); experiment: Cellular growth inhibition assay, HEK293 cells (Example 16); conditions: read-out: HEK293 (GI50), 72 hours, CellTiter-Glo 2.0
Protocol: (§1) Exemplary compounds were tested for ability to inhibit the proliferation of HEK293 cells (ATCC CRL-1573) and HeLa cells (ATCC CCL-2).
(§2) HEK293 and HeLa cells were cultured in DMEM (Gibco 11995), supplemented with 10% Heat-inactivated FBS (Gibco A38400-01) and 1% Penicillin/Streptomycin (Gibco 15140-122) at 37° C. with 5% CO2 in a humidified tissue culture incubator. Cells were seeded at 500 cells/well in 384-well, Poly-D-lysine-treated blackplates (Perkin Elmer 6007710) in 25 μL media lacking selection for 18-24 hours. Plates were spun at 300 g for 30 seconds and stored in the incubator overnight. After 24 hours, a 25 μL aliquot of compound-containing medium was added in each well, at a final top concentration of 10 μM test compound, with 3-fold dilutions, using DMSO alone as a negative control. Plates were then spun at 300×g for 3 minutes again and cultured at 37° C. with 5% CO2. After 72 hours, cell viability was quantified with CellTiter-Glo 2.0 (Promega). After equilibrating cell plates at room temperature for 30 minutes, 25 μL CellTiter-Glo 2.0 reagent was dispensed into each well. Plates were mixed on a shaker for 2 minutes at 500 rpm, followed by a 10-minute incubation at room temperature. Luminescence readings were measured with an EnVision Plate Reader (Perkin Elmer). Data was normalized to DMSO treated cell wells. […]

[2] = target: EGFR T790M/L858R kinase domain (Homo sapiens, UniProt P00533, L858R/T790M); experiment: EGFR cellular target engagement assay (HEK293 cells stable for EGFR T790M, L858R); conditions: read-out: TE50, 6 hours
Protocol: HEK293 cells were cultured in DMEM (Gibco 11995), supplemented with 10% Heat-inactivated FBS (Gibco A38400-01) and 1% Penicillin/Streptomycin (Gibco 15140-122) at 37° C. with 5% CO2 in a humidified tissue culture incubator. Cells were made stable for EGFR (amino acids 696-1022, T790M, L858R) by lentiviral transduction, followed by selection with 1 μg/ml Puromycin Dihydrochloride (Thermo A1113803). Cells were seeded at 30,000 cells/ml in 0.1 ml of complete media in Poly-D-lysine-treated 96-well plates and incubated overnight. Cells were treated with increasing concentrations of compound and let incubate at 37C and 5% CO2 for 6 hours, after which media was aspirated, washed with 1×PBS and cells were lysed in RIPA Lysis and Extraction Buffer (Thermo 89901) supplemented with 5 mM MgCl2, Protease and Phosphatase inhibitor cocktail (Thermo 1861281), and Universal Nuclease (Thermo 88700). Plates with RIPA were shaken at 4° C. at 600 rpm for 15 min. After shaking samples, they were collected and spun down at 21,000 g for 15 min at 4° C. Following centrifugation, […] of lysate was added to Laemmli Sample Buffer (Bio-Rad 1610747) plus 10% beta-mercaptoethanol, boiled for 15 minutes at 65° C. and loaded onto 4-20% Mini-PROTEAN TGX™ Precast Protein Gels (Bio-Rad). Protein was transferred to a nitrocellulose membrane (Thermo LC2000) using the iBlot 2 Dry Blotting System (Thermo). […]

CCNK = experiment: Payload release assay (DC50 readout), CCNK degradation in the presence of recombinant target protein; conditions: II-series and V-4 (CCNK readout inferred)
Protocol: Exemplary compounds were tested for ability to cause degradation of CCNK or GSPT1 in the presence of recombinant target protein.
HEK293 LgBiT/GSPT1 HiBiT CRISPR Knock-in cells (Promega) were cultured in DMEM (Gibco 11995), supplemented with 10% Heat-inactivated FBS (Gibco A38400-01) and 1% Penicillin/Streptomycin (Gibco 15140-122) and 200 Vg/ml Hygromycin B (Gibco 10-687-010) at 37° C. with 5% CO2 in a humidified tissue culture incubator. HEK293 LgBiT/CCNK HiBiT cells (in-house, described above) were cultured in DMEM (Gibco 11995), supplemented with 10% Heat-inactivated FBS (Gibco A38400-01) and 1% Penicillin/Streptomycin (Gibco 15140-122) 200 Vg/ml Hygromycin B (Gibco 10-687-010), and 1 Vg/ml Puromycin Dihydrochloride (Thermo A1113803) at 37° C. with 5% CO2 in a humidified tissue culture incubator. Cells were seeded (1000 cells/well for HEK293 LgBiT/GSPT1 HiBiT cells or 3000 cells/well for HEK293 LgBiT/CCNK HiBiT cells) 384-well, tissue culture-treated white plates (Perkin Elmer 6007680) in 10 μL media lacking selection for 18-24 hours. Plates were spun at 300 g for 30 seconds and stored in the incubator overnight. After 24 hours, a 5 μL aliquot of recombinant target protein (final concentration of either 5 μM KRAS amino acids 1-169, C51S, C80L, C118S, G12C or 3 μM EGFR amino acids 696-1022 or 3 μM EGFR amino acids 696-1022, T790M, L858R) was added to wells, followed immediately by a 5 μL aliquot of 4× compound-containing medium supplemented with Endurazine Substrate (Promega N2570) was added in each well, at a final top concentration of 10 μM test compound and 0.5× Endurazine, with 4-fold dilutions, using DMSO alone as a negative control. Plates were then spun at 300×g for 3 minutes again and cultured at 37° C. with 5% CO2. After 6 hours the plate was read on Envision MultiMode Plate Reader 2105 (Perkin Elmer) to measure luminescence signal. Data was normalized to DMSO treated cell wells. A four-parameter non-linear regression curve fit was applied to dose-response data in Prism to determine the half maximal growth inhibitory concentration (GI50) of each compound.

[3] = target: EGFR T790M, L858R (amino acids 669-1011) (Homo sapiens, UniProt P00533, L858R/T790M); experiment: KdELECT binding assay, EGFR T790M, L858R; conditions: read-out: T790M/L858R Kd
Protocol: (§3) Exemplary compounds were tested for ability to bind to EGFR WT (amino acids 669-1011, Accession Number NP_005219.2) or EGFR T790M, L858R (amino acids 669-1011 Accession Number NP_005219.2) expressed from bacteria or mammalian cells, respectively. Compounds were tested using the KdELECT assay at Eurofins Discovery.
(§4) Kinase-tagged T7 phage strains were prepared in an E. coli host derived from the BL21 strain. E. coli were grown to log-phase and infected with T7 phage and incubated with shaking at 32° C. until lysis. The lysates were centrifuged and filtered to remove cell debris. The remaining kinases were produced in HEK-293 cells and subsequently tagged with DNA for qPCR detection. Streptavidin-coated magnetic beads were treated with biotinylated small molecule ligands for 30 minutes at room temperature to generate affinity resins for kinase assays. The liganded beads were blocked with excess biotin and washed with blocking buffer (SeaBlock (Pierce), 1% BSA, 0.05% Tween 20, 1 mM DTT) to remove unbound ligand and to reduce non-specific binding. Binding reactions were assembled by combining kinases, liganded affinity beads, and test compounds in 1x binding buffer (20% SeaBlock, 0.17× PBS, 0.05% Tween 20, 6 mM DTT). Test compounds were prepared as 111× stocks in 100% DMSO. […] The kinase concentration in the eluates was measured by qPCR.

[4] = target: EGFR WT (amino acids 669-1011) (Homo sapiens, UniProt P00533); experiment: KdELECT binding assay, EGFR WT; conditions: read-out: WT Kd
Protocol: as §3, §4

HeLa cells (ATCC CCL-2) = experiment: Cellular growth inhibition assay, HeLa cells (Example 16); conditions: read-out: HeLa (GI50), 72 hours, CellTiter-Glo 2.0
Protocol: as §1, §2

C=C(CN1CCN(c2nc(NCc3nc4cc(C)ccc4[nH]3)n3ncc(Br)c3n2)CC1)C(=O)N[C@@H]1CN(c2nc(Nc3cn(C)nc3OC)c3ncn(C)c3n2)C[C@H]1F
GI50 [1]: < 500 nM | EC50 [2]: < 250 nM | DC50 (CCNK; read-out: DC50 at 0 μM EGFR T790M L858R, 0 μM recombinant EGFR T790M L858R): < 250 nM | DC50 (CCNK; read-out: DC50 at 0 μM EGFR WT, 0 μM recombinant EGFR WT): 250 to 5000 nM | DC50 (CCNK; read-out: DC50 at 3 μM EGFR T790M L858R, 3 μM recombinant EGFR T790M L858R): < 250 nM | DC50 (CCNK; read-out: DC50 at 3 μM EGFR WT, 3 μM recombinant EGFR WT): < 250 nM | Kd [3]: 50 to 500 nM | Kd [4]: 50 to 500 nM | GI50 (HeLa cells (ATCC CCL-2)): < 500 nM

Like-named read-outs stand apart in the source and are kept apart here.
